Target: Melatonin receptor type 1A (Homo sapiens, UniProt P48039)
Assay: Agonist activity at human MT1 receptor expressed in CHO cells by [35S]GTPgamma binding assay
Format: functional, cell-based

Chains of the proteins cited; added tags and fusions are not shown.
UniProt P48039, whole entry: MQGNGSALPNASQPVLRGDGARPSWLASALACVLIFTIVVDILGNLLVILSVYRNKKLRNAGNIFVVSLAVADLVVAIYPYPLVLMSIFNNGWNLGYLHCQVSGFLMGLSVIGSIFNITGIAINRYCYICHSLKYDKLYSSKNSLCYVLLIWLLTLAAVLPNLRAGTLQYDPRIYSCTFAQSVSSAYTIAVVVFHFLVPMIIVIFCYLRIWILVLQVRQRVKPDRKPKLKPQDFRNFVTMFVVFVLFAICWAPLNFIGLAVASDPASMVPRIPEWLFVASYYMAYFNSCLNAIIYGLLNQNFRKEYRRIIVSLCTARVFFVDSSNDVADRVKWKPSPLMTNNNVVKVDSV

EC50: 2.1 nM
SMILES: CCCC(=O)NCCn1ccc2ccc(OC)nc21

Source: ChEMBL document CHEMBL1759969 (Bioorg Med Chem Lett, 2011)
